Assay results taken from US20160025730A1, “METHODS OF SELECTING COMBINATION THERAPY FOR COLORECTAL CANCER PATIENTS” (NESTEC S.A., priority 2013, published 2016).

What was measured:
HER1:HER2 = assay: CEER ErbB heterodimerization assay, HER1:HER2 dimer; conditions: Lim1215 cells, assay range 7.8-1000
MEK = assay: CEER phospho MEK level; conditions: Lim1215 cells, assay range 1.02-100
HER1:HER3 = assay: CEER ErbB heterodimerization assay, HER1:HER3 dimer; conditions: Lim1215 cells, assay range 200-20000
HER2:HER3 = assay: CEER ErbB heterodimerization assay, HER2:HER3 dimer; conditions: Lim1215 cells, assay range 50-1500
AKT = assay: CEER phospho AKT level; conditions: Lim1215 cells, assay range 1.02-40
HER3 [1] = assay: CEER phospho HER3 activation level; conditions: Lim1215 cells, assay range 12.8-1500
ERK = assay: CEER phospho ERK level; conditions: Lim1215 cells, assay range 1.02-100
HER2 = assay: CEER total HER2 expression level; type: cell-based, human; conditions: for Total HER2 (0.2 ug): Lim1215 cells, assay range 390-25000
HER1 = assay: CEER total HER1 expression level; conditions: Lim1215 cells, assay range 7.8-500
HER3 [2] = assay: CEER total HER3 expression level; type: cell-based, human; conditions: for Total HER3 (0.2 ug): Lim1215 cells, assay range 390-25000
RSK = assay: CEER phospho RSK level; type: cell-based, human; conditions: Lim1215 cells, assay range 2.56-100
Source text: These were complemented by ErbB heterodimerization assays using CEER.

[3] = EGFR sensitive colorectal cancer cell lines, up to 24 h of treatment

cetuximab
ErbB Dimer Formation HER1:HER2 (2 ug) (HER1:HER2; 24 h, series 2 (FIG. 2; Control 128.5)): 197.8
ErbB Dimer Formation HER1:HER2 (2 ug) (HER1:HER2; 24 h, series 3 (FIG. 3; control 46.0)): 79.5
ErbB Dimer Formation HER1:HER2 (2 ug) (HER1:HER2; 24 h, series 4 (FIG. 4; DMSO 42.7)): 58.3
ErbB Dimer Formation HER1:HER2 (2 ug) (HER1:HER2; cetuximab 0 h): 46.2
ErbB Dimer Formation HER1:HER2 (2 ug) (HER1:HER2; cetuximab 30 min): 36.9
ErbB Dimer Formation HER1:HER2 (2 ug) (HER1:HER2; cetuximab 1 h): 49.3
ErbB Dimer Formation HER1:HER2 (2 ug) (HER1:HER2; cetuximab 2 h): 35.4
ErbB Dimer Formation HER1:HER2 (2 ug) (HER1:HER2; cetuximab 4 h): 34.5
ErbB Dimer Formation HER1:HER2 (2 ug) (HER1:HER2; cetuximab 6 h): 38.0
ErbB Dimer Formation HER1:HER2 (2 ug) (HER1:HER2; cetuximab 8 h): 36.7
Phos MEK (10 ug) (MEK; 24 h, series 2 (FIG. 2; Control 38.0)): 7.0 pg/µg
Phos MEK (10 ug) (MEK; 24 h, series 3 (FIG. 3; control 16.3)): 2.7 pg/µg
Phos MEK (10 ug) (MEK; 24 h, series 4 (FIG. 4; DMSO 9.8)): 1.5 pg/µg
Phos MEK (10 ug) (MEK; cetuximab 0 h): 16.6 pg/µg
Phos MEK (10 ug) (MEK; cetuximab 30 min): 9.0 pg/µg
Phos MEK (10 ug) (MEK; cetuximab 1 h): 7.3 pg/µg
Phos MEK (10 ug) (MEK; cetuximab 2 h): 7.0 pg/µg
Phos MEK (10 ug) (MEK; cetuximab 4 h): 3.4 pg/µg
Phos MEK (10 ug) (MEK; cetuximab 6 h): 2.9 pg/µg
Phos MEK (10 ug) (MEK; cetuximab 8 h): 2.5 pg/µg
ErbB Dimer Formation HER1:HER3 (0.5 ug) (HER1:HER3; 24 h, series 2 (FIG. 2; Control 387)): 645
ErbB Dimer Formation HER1:HER3 (0.5 ug) (HER1:HER3; 24 h, series 3 (FIG. 3; control 398)): 1090
ErbB Dimer Formation HER1:HER3 (0.5 ug) (HER1:HER3; 24 h, series 4 (FIG. 4; DMSO 186)): 353
ErbB Dimer Formation HER1:HER3 (0.5 ug) (HER1:HER3; cetuximab 0 h): 121
ErbB Dimer Formation HER1:HER3 (0.5 ug) (HER1:HER3; cetuximab 30 min): 128
ErbB Dimer Formation HER1:HER3 (0.5 ug) (HER1:HER3; cetuximab 1 h): 107
ErbB Dimer Formation HER1:HER3 (0.5 ug) (HER1:HER3; cetuximab 2 h): 89
ErbB Dimer Formation HER1:HER3 (0.5 ug) (HER1:HER3; cetuximab 4 h): 116
ErbB Dimer Formation HER1:HER3 (0.5 ug) (HER1:HER3; cetuximab 6 h): 147
ErbB Dimer Formation HER1:HER3 (0.5 ug) (HER1:HER3; cetuximab 8 h): 129
ErbB Dimer Formation HER2:HER3 (2 ug) (HER2:HER3; 24 h, series 2 (FIG. 2; Control 250.9)): 1343.1
ErbB Dimer Formation HER2:HER3 (2 ug) (HER2:HER3; 24 h, series 3 (FIG. 3; control 211.8)): 952.8
ErbB Dimer Formation HER2:HER3 (2 ug) (HER2:HER3; 24 h, series 4 (FIG. 4; DMSO 172.5)): 434.0
ErbB Dimer Formation HER2:HER3 (2 ug) (HER2:HER3; cetuximab 0 h): 89.8
ErbB Dimer Formation HER2:HER3 (2 ug) (HER2:HER3; cetuximab 30 min): 81.6
ErbB Dimer Formation HER2:HER3 (2 ug) (HER2:HER3; cetuximab 1 h): 101.1
ErbB Dimer Formation HER2:HER3 (2 ug) (HER2:HER3; cetuximab 2 h): 80.9
ErbB Dimer Formation HER2:HER3 (2 ug) (HER2:HER3; cetuximab 4 h): 73.5
ErbB Dimer Formation HER2:HER3 (2 ug) (HER2:HER3; cetuximab 6 h): 126.6
ErbB Dimer Formation HER2:HER3 (2 ug) (HER2:HER3; cetuximab 8 h): 112.2
Phos AKT (10 ug) (AKT; 24 h, series 2 (FIG. 2; Control 9.6)): 1.8 pg/µg
Phos AKT (10 ug) (AKT; cetuximab 0 h): 3.5 pg/µg
Phos AKT (10 ug) (AKT; cetuximab 1 h): 3.6 pg/µg
Phos AKT (10 ug) (AKT; cetuximab 2 h): 1.8 pg/µg
Phos AKT (10 ug) (AKT; cetuximab 4 h): 1.3 pg/µg
Phos AKT (10 ug) (AKT; cetuximab 6 h): 1.7 pg/µg
Phos AKT (10 ug) (AKT; cetuximab 8 h): 1.7 pg/µg
Phos HER3 (10 ug) (HER3 [1]; 24 h, series 2 (FIG. 2; Control 236)): 651
Phos HER3 (10 ug) (HER3 [1]; 24 h, series 3 (FIG. 3; control 573)): 1450
Phos HER3 (10 ug) (HER3 [1]; 24 h, series 4 (FIG. 4; DMSO 204)): 637
Phos HER3 (10 ug) (HER3 [1]; cetuximab 0 h): 257
Phos HER3 (10 ug) (HER3 [1]; cetuximab 30 min): 223
Phos HER3 (10 ug) (HER3 [1]; cetuximab 1 h): 263
Phos HER3 (10 ug) (HER3 [1]; cetuximab 2 h): 261
Phos HER3 (10 ug) (HER3 [1]; cetuximab 4 h): 264
Phos HER3 (10 ug) (HER3 [1]; cetuximab 6 h): 200
Phos HER3 (10 ug) (HER3 [1]; cetuximab 8 h): 273
Phos ERK (10 ug) (ERK; 24 h, series 2 (FIG. 2; Control 5.7)): 0.87 pg/µg
Phos ERK (10 ug) (ERK; 24 h, series 3 (FIG. 3; control 5.3)): 1.1 pg/µg
Phos ERK (10 ug) (ERK; 24 h, series 4 (FIG. 4; DMSO 3.3)): 0.49 pg/µg
Phos ERK (10 ug) (ERK; cetuximab 0 h): 3.3 pg/µg
Phos ERK (10 ug) (ERK; cetuximab 30 min): 1.1 pg/µg
Phos ERK (10 ug) (ERK; cetuximab 2 h): 1.4 pg/µg
Phos ERK (10 ug) (ERK; cetuximab 4 h): 1.1 pg/µg
Phos ERK (10 ug) (ERK; cetuximab 6 h): 0.56 pg/µg
Phos ERK (10 ug) (ERK; cetuximab 8 h): 0.7 pg/µg
HER2 protein levels (in words) (HER2; [3]): steady increase
Total HER2 (0.2 ug) (HER2; 24 h, series 2 (FIG. 2; Control 4212)): 9079
Total HER2 (0.2 ug) (HER2; 24 h, series 3 (FIG. 3; control 3025)): 5678
Total HER2 (0.2 ug) (HER2; 24 h, series 4 (FIG. 4; DMSO 2581)): 4147
Total HER2 (0.2 ug) (HER2; cetuximab 0 h): 2127
Total HER2 (0.2 ug) (HER2; cetuximab 30 min): 2532
Total HER2 (0.2 ug) (HER2; cetuximab 1 h): 2853
Total HER2 (0.2 ug) (HER2; cetuximab 2 h): 2625
Total HER2 (0.2 ug) (HER2; cetuximab 4 h): 2529
Total HER2 (0.2 ug) (HER2; cetuximab 6 h): 2229
Total HER2 (0.2 ug) (HER2; cetuximab 8 h): 3109
Total HER1 (1 ug) (HER1; 24 h, series 2 (FIG. 2; Control 171.4)): 129.2
Total HER1 (1 ug) (HER1; 24 h, series 3 (FIG. 3; control 137.2)): 86.9
Total HER1 (1 ug) (HER1; 24 h, series 4 (FIG. 4; DMSO 96.8)): 46.5
Total HER1 (1 ug) (HER1; cetuximab 0 h): 74.4
Total HER1 (1 ug) (HER1; cetuximab 30 min): 40.9
Total HER1 (1 ug) (HER1; cetuximab 1 h): 67.4
Total HER1 (1 ug) (HER1; cetuximab 2 h): 46.9
Total HER1 (1 ug) (HER1; cetuximab 4 h): 52.8
Total HER1 (1 ug) (HER1; cetuximab 6 h): 60.2
Total HER1 (1 ug) (HER1; cetuximab 8 h): 14.4
HER3 protein levels (in words) (HER3 [2]; [3]): steady increase
Total HER3 (0.2 ug) (HER3 [2]; 24 h, series 2 (FIG. 2; Control 7757)): 16288
Total HER3 (0.2 ug) (HER3 [2]; 24 h, series 3 (FIG. 3; control 4282)): 8514
Total HER3 (0.2 ug) (HER3 [2]; 24 h, series 4 (FIG. 4; DMSO 3388)): 7789
Total HER3 (0.2 ug) (HER3 [2]; cetuximab 0 h): 3882
Total HER3 (0.2 ug) (HER3 [2]; cetuximab 30 min): 4115
Total HER3 (0.2 ug) (HER3 [2]; cetuximab 1 h): 5073
Total HER3 (0.2 ug) (HER3 [2]; cetuximab 2 h): 4707
Total HER3 (0.2 ug) (HER3 [2]; cetuximab 4 h): 5219
Total HER3 (0.2 ug) (HER3 [2]; cetuximab 6 h): 4976
Total HER3 (0.2 ug) (HER3 [2]; cetuximab 8 h): 5360
Phos RSK (10 ug) (RSK; 24 h, series 2 (FIG. 2; Control 289 >ULOQ)): 5.4 pg/µg
Phos RSK (10 ug) (RSK; 24 h, series 3 (FIG. 3; control […] >ULOQ)): 7.1 pg/µg
Phos RSK (10 ug) (RSK; 24 h, series 4 (FIG. 4; DMSO 91.4)): 4.4 pg/µg
Phos RSK (10 ug) (RSK; cetuximab 0 h): 76.0 pg/µg
Phos RSK (10 ug) (RSK; cetuximab 30 min): 46.8 pg/µg
Phos RSK (10 ug) (RSK; cetuximab 1 h): 45.7 pg/µg
Phos RSK (10 ug) (RSK; cetuximab 2 h): 22.9 pg/µg
Phos RSK (10 ug) (RSK; cetuximab 4 h): 10.9 pg/µg
Phos RSK (10 ug) (RSK; cetuximab 6 h): 8.4 pg/µg
Phos RSK (10 ug) (RSK; cetuximab 8 h): 5.2 pg/µg
